Measurements published in US20100190832A1, “Mechanism-based inhibitors of transthyretin amyloidosis: studies with biphenyl ethers and structural templates” (NATIONAL INSTITUTE OF IMMUNOLOGY., priority 2008, published 2010).
Like-named read-outs stand apart in the source and are kept apart here.

Legend:
WT-TTR = target: T1, WT-TTR (Homo sapiens, UniProt P02766); test: Stagnant acid-mediated TTR aggregation (fibril formation) assay, turbidity at 340 nm; format: biochemical
T1 construct: made in house
Method: Stagnant Acid-Mediated TTR Aggregation Assay.
After 1 h, the samples were diluted with 0.5 ml of 200 mM sodium acetate buffer containing 100 mM KCl and 1 mM EDTA. Samples after mild vortexing were incubated at 37° C. for the desired amount of time without stirring to evaluate the efficacy of the inhibitors. The extent of aggregation was probed by turbidity measurements at 340 nm using Tecan GENios microplate reader. […] The extent of TTR fibril formation in the absence of inhibitor was defined to be 100%. […] All experiments were done in triplicate. […] The IC50 was determined by plotting mean of % inhibition vs log and fitted to sigmoid equation:
(§1) The experiments were conducted at 25° C. After 1 h, the samples were diluted with 0.5 mL of 200 mM sodium acetate buffer pH 4.4 containing 100 mM KCl and 1 mM EDTA, vortexed, and incubated at 37° C. for 72 h. […] The stoichiometry of the binding of the inhibitors was determined by HPLC as described by Green et al., N. S. Palaninathan, S, L, Sacchettini, J. e. […] Dissociation constant of binding of these compounds to TTR was determined by fluorescence titration, and data were fitted into the Adair equation for two bind mg.

TTR = target: T2, TTR (Homo sapiens, UniProt P02766); test: Dissociation constant by fluorescence titration (Adair equation, two sites); format: binding
T2 construct: made in house
Method: as §1
Small aliquots of 1 mM ligands solutions were successively added to the […] in 100 mM sodium acetate buffer pH 4.4 at […] under constant stirring. After each addition sample was left for 2 min. […] Readings were corrected for buffer blank, dilution and inner filter effect. The inner filter effect was corrected by using the following equation,
From the titration data the dissociation constant was determined by fitting data in following Adair equation for two binding sites-

`Oc1cc(Cl)ccc1Oc1ccc(Cl)cc1Cl` [Compound 1, Triclosan, reference compound] was tested. Which IC50 (WT-TTR; 50% reduction in fibril formation, TTR 7.2 μM, pH 4.4, read-out: IC50 ± SE) did it give?
The IC50 was 53.5 ± 7.01 µM.

What about the IC50 (WT-TTR; Table 3, WT-TTR 7.2 μM, read-out: IC50) of the same compound?
The IC50 was 53.5 µM.

And the Kd (TTR)?
Its Kd is 0.19 µM.

And the Kd (TTR; pH 4.4, text, read-out: dissociation constant Kd1)?
Its Kd is 144 µM.
